pEC50, pKd: −log10 of the molar value.
Assays:
[1] = target: SARS-CoV-2 Wuhan-Hu-1 spike glycoprotein (S) (SARS-CoV-2 Wuhan-Hu-1); experiment: FACS
[2] = target: SARS-CoV-2 Wuhan-Hu-1 spike glycoprotein (S) (SARS-CoV-2 Wuhan-Hu-1); experiment: SPR

Row | Substance | pEC50 [1] | pKd [2]
1 | VHH-72-Fc | 9.70 | –
2 | VHH-72 | – | 7.06
